Source: ChEMBL document CHEMBL3046664, “Synthesis in vitro/in vivo evaluation and in silico physicochemical study of prodrug approach for brain targeting of alkylating agent” (Med Chem Res, 2013)

How the values were obtained:
[1] = Half life in silver nitrate solution assessed as conversion to 1-Ethyl-3-{(bis(2-chloroethyl)amino)carbamoyl}-pyridinium iodide at 5% after 2 min by UV-Visible spectrophotometric analysis
[2] = test system: Brain; experiment: Half life in Rattus norvegicus (rat) brain homogenate assessed as conversion to 1-Ethyl-3-{(bis(2-chloroethyl)amino)carbamoyl}-pyridinium iodide at 6.25 x 10^-4 M by UV-spectrophotometric analysis; settings: in vivo, 625 µM
[3] = test system: Blood; experiment: Half life in 100% Rattus norvegicus (rat) whole blood assessed as conversion to 1-Ethyl-3-{(bis(2-chloroethyl)amino)carbamoyl}-pyridinium iodide at 10 x 10^-4 M by UV-spectrophotometric analysis; settings: 1000 µM
[4] = test system: Brain; experiment: Half life in Rattus norvegicus (rat) brain homogenate assessed as conversion to 1-Propyl-3-{(bis(2-chloroethyl)amino)carbamoyl}pyridinium bromide at 6.25 x 10^-4 M by UV-spectrophotometric analysis; settings: in vivo, 625 µM
[5] = test system: Blood; experiment: Half life in 100% Homo sapiens (human) whole blood assessed as conversion to 1-Propyl-3-{(bis(2-chloroethyl)amino)carbamoyl}pyridinium bromide at 10 x 10^-4 M by UV-spectrophotometric analysis; settings: 1000 µM
[6] = Half life in silver nitrate solution assessed as conversion to 1-Propyl-3-{(bis(2-chloroethyl)amino)carbamoyl}pyridinium bromide at 5% after 2 min by UV-Visible spectrophotometric analysis

Row | Structure (SMILES) | t1/2 [1] [min] | t1/2 [2] [min] | t1/2 [3] [min] | t1/2 [4] [min] | t1/2 [5] [min] | t1/2 [6] [min]
1 | CCN1C=CCC(C(=O)N(CCCl)CCCl)=C1 | 6 | 14.4 | 10.2 | – | – | –
2 | CCCN1C=CCC(C(=O)N(CCCl)CCCl)=C1 | – | – | – | 17 | 21 | 8
